Measured values taken from patent publication US5036053A.

Protein sequences, listed by entry. Tags and fused reporters are not part of them. Residues count along the entry.
UniProt P00797, 67-406 limits assumed: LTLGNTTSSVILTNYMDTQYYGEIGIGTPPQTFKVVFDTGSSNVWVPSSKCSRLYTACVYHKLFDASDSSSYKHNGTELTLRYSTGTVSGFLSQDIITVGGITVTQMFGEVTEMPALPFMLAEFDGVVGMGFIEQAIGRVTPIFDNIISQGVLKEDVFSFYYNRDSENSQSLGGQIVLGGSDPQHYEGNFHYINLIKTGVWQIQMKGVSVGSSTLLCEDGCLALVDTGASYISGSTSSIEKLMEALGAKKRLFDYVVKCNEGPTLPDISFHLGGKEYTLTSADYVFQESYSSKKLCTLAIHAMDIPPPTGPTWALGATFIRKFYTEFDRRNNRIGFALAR

Target: renin (Homo sapiens, UniProt P00797)
Test: in vitro renin inhibitory activity, radioimmunoassay for angiotensin I
Settings: renin incubated two hours at 37° with angiotensinogen, concentration causing 50% inhibition of renin activity

IC50 [nM]	SMILES	also measured
0.45	COC(=O)C(NC(=O)[C@H](Cc1ccc(OC)cc1)NS(=O)(=O)N1CCOCC1)C(=O)NC(CC1CCCCC1)C(O)C(O)CC(C)C (stereo partly shown)	
	COC(=O)C(NC(=O)[C@H](Cc1ccccc1)NS(=O)(=O)N1CCN(C)CC1)C(=O)NC(CC1CCCCC1)C(O)C(O)CC(C)C (stereo partly shown)	IC50 (tested form: acetate): 0.3 nM
5	CC(C)CC(O)C(O)C(CC1CCCCC1)NC(=O)CNC(=O)[C@H](Cc1ccccc1)NS(=O)(=O)N1CCOCC1 (stereo partly shown)	
7.6	CC(=O)NCC#CCC(NC(=O)[C@H](Cc1ccccc1)NS(=O)(=O)N1CCOCC1)C(=O)NC(CC1CCCCC1)C(O)C(O)CC(C)C (stereo partly shown)	
	CC(C)CC(O)C(O)C(CC1CCCCC1)NC(=O)[C@H](Cc1c[nH]cn1)NC(=O)C(Cc1ccccc1)CS(=O)(=O)C(C)(C)C (single isomer, unassigned) [BBSPHISCAD (fast isomer)]	IC50 (tested form: methanesulfonate): 160 nM
38	C=CCSC(NC(=O)[C@H](Cc1ccccc1)NS(=O)(=O)N1CCOCC1)C(=O)NC(CC1CCCCC1)C(O)C(O)CC(C)C (single isomer, unassigned) [drawing 105]	
0.68	COC(=O)C(NC(=O)[C@H](Cc1ccc(OC)cc1)NS(=O)(=O)N(C)C)C(=O)NC(CC1CCCCC1)C(O)C(O)CC(C)C (stereo partly shown)	
	CC(C)CC(O)C(O)C(CC1CCCCC1)NC(=O)[C@H](Cc1c[nH]cn1)NC(=O)C(Cc1ccccc1)CS(=O)(=O)C(C)(C)C (single isomer, unassigned) [BBSPHISCAD (slow isomer)]	IC50 (tested form: methanesulfonate): 0.8 nM
0.66	COC(=O)C(NC(=O)[C@H](Cc1ccccc1)NS(=O)(=O)N(C)C)C(=O)NC(CC1CCCCC1)C(O)C(O)CC(C)C (stereo partly shown)	
0.19	CNC(=S)NCCCC[C@H](NC(=O)[C@H](Cc1ccccc1)NS(=O)(=O)N1CCOCC1)C(=O)NC(CC1CCCCC1)C(O)C(O)CC(C)C (stereo partly shown)	
6	CC(C)CC(O)C(O)C(CC1CCCCC1)NC(=O)C(CC#CCNC=O)NC(=O)[C@H](Cc1ccccc1)NS(=O)(=O)N1CCOCC1 (stereo partly shown)	
25	CCOC(NC(=O)[C@H](Cc1ccccc1)NS(=O)(=O)N1CCOCC1)C(=O)NC(C1CCCCC1)C(O)C(O)CC(C)C (single isomer, unassigned)	
	COC(=O)C(NC(=O)[C@H](Cc1ccccc1)NS(=O)(=O)N1CCNCC1)C(=O)NC(CC1CCCCC1)C(O)C(O)CC(C)C (stereo partly shown)	IC50 (tested form: acetate): 0.6 nM
12	CC(C)CC(O)C(O)C(CC1CCCCC1)NC(=O)C(NC(=O)[C@H](Cc1ccccc1)NS(=O)(=O)N1CCOCC1)C(=O)O (stereo partly shown)	
24	CNC(=S)NCC#CCC(NC(=O)[C@H](Cc1ccccc1)NS(=O)(=O)N1CCOCC1)C(=O)NC(CC1CCCCC1)C(O)C(O)CC(C)C (stereo partly shown)	
1.4	CCOC(NC(=O)[C@H](Cc1ccccc1)NC(=O)CC(C)(C)N)C(=O)NC(CC1CCCCC1)C(O)C(O)CC(C)C (stereo partly shown)	
1.4	COC(=O)C(NC(=O)[C@H](Cc1ccccc1)NC(=O)CC(C)C)C(=O)NC(CC1CCCCC1)C(O)C(O)CC(C)C (stereo partly shown)	
0.4	CC(C)CC(O)C(O)C(CC1CCCCC1)NC(=O)C(CC#N)NC(=O)[C@H](Cc1ccccc1)NS(=O)(=O)N1CCOCC1 (stereo partly shown)	
> 10	CCSC(NC(=O)[C@H](Cc1ccccc1)NC(=O)OC(C)(C)C)C(=O)NC(CC1CCCCC1)C(O)C(O)CC(C)C (single isomer, unassigned) [BOCPHENHCH(SEt)COCAD (slow isomer)]	
